# Assay results reported in patent publication US20060083680A1, “Diphenyl ether derivatives and their use for imaging serotonin transporters” (The Trustees of the University of Pennsylvania, priority 2004, published 2006).
# Protein sequences, listed by entry. Tags and fused reporters are not part of them.
# UniProt P31652, whole entry: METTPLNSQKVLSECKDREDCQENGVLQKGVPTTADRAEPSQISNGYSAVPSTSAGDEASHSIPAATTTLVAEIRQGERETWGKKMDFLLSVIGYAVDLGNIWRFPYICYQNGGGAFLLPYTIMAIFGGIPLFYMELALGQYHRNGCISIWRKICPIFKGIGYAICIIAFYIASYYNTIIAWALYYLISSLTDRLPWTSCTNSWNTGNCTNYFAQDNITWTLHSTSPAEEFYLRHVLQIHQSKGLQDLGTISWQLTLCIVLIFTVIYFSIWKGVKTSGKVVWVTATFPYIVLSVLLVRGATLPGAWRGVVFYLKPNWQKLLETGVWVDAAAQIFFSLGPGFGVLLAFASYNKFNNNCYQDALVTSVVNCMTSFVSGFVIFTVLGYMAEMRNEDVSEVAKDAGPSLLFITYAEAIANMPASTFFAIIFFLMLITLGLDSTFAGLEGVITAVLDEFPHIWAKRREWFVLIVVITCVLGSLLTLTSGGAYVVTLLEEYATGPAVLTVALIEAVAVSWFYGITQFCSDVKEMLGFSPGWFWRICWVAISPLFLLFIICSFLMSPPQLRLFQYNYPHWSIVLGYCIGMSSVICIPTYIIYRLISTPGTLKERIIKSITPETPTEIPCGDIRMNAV
# UniProt P23977, whole entry: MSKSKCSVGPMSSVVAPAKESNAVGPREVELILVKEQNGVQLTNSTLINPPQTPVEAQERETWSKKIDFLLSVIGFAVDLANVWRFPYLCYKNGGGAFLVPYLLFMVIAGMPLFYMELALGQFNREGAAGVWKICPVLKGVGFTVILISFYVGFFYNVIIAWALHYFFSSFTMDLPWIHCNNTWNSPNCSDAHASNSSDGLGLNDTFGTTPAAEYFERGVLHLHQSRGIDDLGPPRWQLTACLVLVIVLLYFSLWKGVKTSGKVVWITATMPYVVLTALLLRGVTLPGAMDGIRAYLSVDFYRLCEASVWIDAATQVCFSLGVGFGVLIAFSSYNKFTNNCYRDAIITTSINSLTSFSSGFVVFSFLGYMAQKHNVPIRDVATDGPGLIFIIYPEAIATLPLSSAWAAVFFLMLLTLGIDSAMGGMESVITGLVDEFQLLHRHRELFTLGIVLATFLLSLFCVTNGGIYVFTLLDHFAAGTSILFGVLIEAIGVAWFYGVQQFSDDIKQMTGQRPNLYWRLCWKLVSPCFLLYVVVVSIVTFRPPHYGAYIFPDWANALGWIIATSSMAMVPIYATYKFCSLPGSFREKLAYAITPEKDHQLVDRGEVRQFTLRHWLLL
# Key:
# [1] = molecular target: T1, SERT (serotonin transporter) (Rattus norvegicus, UniProt P31652); assay: In vitro binding assay, membranes of LLC-PK1 cells expressing SERT, [^125I]IDAM
# T1 construct: membrane homogenates
# Method: Preparation of membrane homogenates: LLC-PK1 cells from pig kidney permanently expressing DAT, NET and SERT, respectively (LLC-DAT, LLC-NET and LLC-SERT) were kindly provided by Dr. G. Rudnick at Yale University. These cells were grown to confluence as a monolayer on 15 cm petri dish as reported previously. […] Cells were then washed once with phosphate buffer saline (w/ Ca^2+ and Mg^2+) (Bio-Whittaker) and harvested with 10 mL PBS by scraping. The cell suspensions were homogenized on ice for 20 strokes and centrifuged at 17,000 rpm for 20 min at 4° C. The pellets were re-suspended in PBS, frozen quickly in liquid N2 and stored in a −70° C. freezer.
# Binding assays: Binding assays were performed in a final volume of 0.2 mL. […] Incubation was carried out for one h at room temperature and the bound ligand was collected on glass fiber filters (Schleicher & Schuell No. 25, Keene, N.H.) presoaked with 1% polyethylenimine (Sigma, St. Louis, Mo.) and counted in a gamma counter (Packard 5000). Results of competition experiments were subjected to nonlinear regression analysis using EBDA (Elsevier-BIOSOFT, Cambridge, UK).
# SERT binding sites = molecular target: T2, SERT binding sites (Rattus norvegicus, UniProt P31652); assay: In vivo competitive binding / blocking of [^125I]4 regional uptake; conditions: rats, drug 2 mg/kg i.v. 5 min prior to tracer, 120 min after [^125I]4
# T2 construct: from tissue; host or cells: rat brain in vivo (hypothalamus, cortex, striatum, hippocampus, cerebellum); ex vivo brain sections
# From the text: The reduction of regional specific binding in the drug-pretreated rats was compared to the control animals with saline pretreatment.
# [2] = molecular target: T3, DAT (dopamine transporter) (Rattus norvegicus, UniProt P23977); assay: In vitro binding assay, membranes of LLC-PK1 cells expressing DAT, [^125I]IPT
# T3 construct: membrane homogenates
# Method: Preparation of membrane homogenates: LLC-PK1 cells from pig kidney permanently expressing DAT, NET and SERT, respectively (LLC-DAT, LLC-NET and LLC-SERT) were kindly provided by Dr. G. Rudnick at Yale University. These cells were grown to confluence as a monolayer on 15 cm petri dish as reported previously. (Gu, H., Wall, S. C. and Rudnick G., Journal of Biological Chemistry, 269: 7124-7130 (1194)). Cells were then washed once with phosphate buffer saline (w/ Ca^2+ and Mg^2+) (Bio-Whittaker) and harvested with 10 mL PBS by scraping. The cell suspensions were homogenized on ice for 20 strokes and centrifuged at 17,000 rpm for 20 min at 4° C. The pellets were re-suspended in PBS, frozen quickly in liquid N2 and stored in a −70° C. freezer.
# Binding assays: Binding assays were performed in a final volume of 0.2 mL. Aliquots of membrane suspensions (100 μL, corresponding to 30-40 g protein) were mixed with 50 mM Tris-HCl, pH 7.4, 120 mM NaCl and 0.1% BSA (all from Sigma, St. Louis, Mo.), 0.4 nM [^125I]IPT or [^125I]IDAM, and 8-10 concentrations (10^−10 to 10^−5 M) of competing drugs. […] Incubation was carried out for one h at room temperature and the bound ligand was collected on glass fiber filters (Schleicher & Schuell No. 25, Keene, N.H.) presoaked with 1% polyethylenimine (Sigma, St. Louis, Mo.) and counted in a gamma counter (Packard 5000). […]
SMILES,"Ki ([1]; LLC-PK1 cells expressing SERT, read-out: Ki SERT)",effect of pretreatment on specific binding/uptake of [^125I]4 in hypothalamus (SERT binding sites),Ki [1],Ki [2]
CSc1ccc([C@@H]2CN3CCC[C@@H]3c3ccccc32)cc1 [(+)McN5652],0.009 ± 0.002 nM,,,
CNCCC(Oc1ccccc1OC)c1ccccc1 (stereo not shown) [Nisoxetine],,did not show any significant effect,203 ± 4 nM,> 1000 nM

# Read-outs that look alike come from different tables or passages of the source.
